The values that follow are results of earlier work, collected in PMC3086679.

Series [1] concerns the target melittin (Apis mellifera) (UniProt P01501).
For series [2], the target named is mastoparan (Vespula lewisii) (UniProt P01514).

On to calmodulin (from UniProt P0DP23), for which the values for the Kd in series [1] and in series [2] were 3 nM and 0.3 nM, respectively.

As a reminder, the Kd is the free concentration of one partner at which half of the binding sites on the other are occupied at equilibrium, for simple one-to-one binding.
